Test [1] concerns the target αβχ161 (γ2/α1 chimeric subunit χ161 with WT α1 and β2 subunits) (Rattus norvegicus, UniProt P18508+P62813). To be noted: cited from earlier work.
Test [2] concerns the target αβγM130C (α1β2γ2 GABAA receptor mutant) (Rattus norvegicus, UniProt P18508+P62813, INS375LLRMFSFK/M168C). To be noted: γ2M130C compared to WT.
Test [3] deals with αβγT81C (α1β2γ2 GABAA receptor mutant) (Rattus norvegicus, UniProt P18508+P62813, INS375LLRMFSFK/T119C). To be noted: γ2T81C compared to WT.
Test [4] concerns the target αF99Cβγ (α1β2γ2 GABAA receptor mutant) (Rattus norvegicus, UniProt P18508+P62813, F126C/INS375LLRMFSFK). To be noted: α1F99C compared to WT.
The target of test [5] is αβγR132C (α1β2γ2 GABAA receptor mutant) (Rattus norvegicus, UniProt P18508+P62813, INS375LLRMFSFK/R170C). To be noted: γ2R132C compared to WT.

The chains behind the UniProt entries cited, without tags or fusion partners. Residues count along the entry.
UniProt P18508, 39-199, stated change not applied: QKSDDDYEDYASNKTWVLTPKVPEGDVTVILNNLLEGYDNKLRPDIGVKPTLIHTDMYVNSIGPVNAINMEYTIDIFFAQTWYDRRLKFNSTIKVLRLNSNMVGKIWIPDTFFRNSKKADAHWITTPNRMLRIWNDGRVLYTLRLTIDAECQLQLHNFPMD
UniProt P62813, 28-455, stated change not applied: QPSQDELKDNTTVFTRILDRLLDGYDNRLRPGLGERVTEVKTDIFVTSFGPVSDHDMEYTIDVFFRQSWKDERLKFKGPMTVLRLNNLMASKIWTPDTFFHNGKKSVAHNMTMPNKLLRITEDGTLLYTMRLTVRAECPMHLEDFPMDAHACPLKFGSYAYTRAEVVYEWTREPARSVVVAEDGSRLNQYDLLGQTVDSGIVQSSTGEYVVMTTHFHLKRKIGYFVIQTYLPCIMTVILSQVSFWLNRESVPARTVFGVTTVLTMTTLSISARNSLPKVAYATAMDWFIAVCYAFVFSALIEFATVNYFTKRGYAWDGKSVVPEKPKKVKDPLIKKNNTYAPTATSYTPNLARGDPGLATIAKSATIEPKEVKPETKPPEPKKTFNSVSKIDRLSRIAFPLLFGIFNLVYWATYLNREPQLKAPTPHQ
UniProt P62813, 28-455 F126C: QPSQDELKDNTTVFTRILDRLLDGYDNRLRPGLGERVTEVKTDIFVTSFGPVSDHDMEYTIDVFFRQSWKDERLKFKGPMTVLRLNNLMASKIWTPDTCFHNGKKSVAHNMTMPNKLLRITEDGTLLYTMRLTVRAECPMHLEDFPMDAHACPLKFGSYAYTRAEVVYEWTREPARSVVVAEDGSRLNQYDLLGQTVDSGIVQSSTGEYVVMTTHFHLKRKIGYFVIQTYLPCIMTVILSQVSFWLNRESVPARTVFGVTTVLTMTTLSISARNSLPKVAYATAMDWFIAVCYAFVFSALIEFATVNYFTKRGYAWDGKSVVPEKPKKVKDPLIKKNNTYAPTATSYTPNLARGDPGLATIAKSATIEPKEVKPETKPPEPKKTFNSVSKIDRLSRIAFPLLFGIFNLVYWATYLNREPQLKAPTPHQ

A value given as a limit tells only on which side of the number the result lay.

The values below come from publication PMC2645942 (Journal of medicinal chemistry, 2008).

With `CN1C(=O)CN=C(c2ccccc2F)c2cc([N+](=O)[O-])ccc21` [flunitrazepam], in test [1], the “binding affinity relative to WT” value is “retained WT binding affinity”.

As for `Cc1ccc(-c2nc3ccc(C)cn3c2CC(=O)N(C)C)cc1` [Zolpidem, zolpidem], the increase in affinity in test [2] and in test [5] was 2-4 fold throughout. In test [3], this compound came in with an effect on affinity of less than 2 fold. For the same compound, the reduction in affinity in test [4] was approximately 3 fold.
